This series can be described thus: clinical. The conditions noted are these: human, in vivo, po, 450 mg.

What is called Cmax is the maximum level reached in the sampled fluid or tissue. As for `CO[C@H]1/C=C/O[C@@]2(C)Oc3c(C)c(O)c4c(O)c(c(/C=N/N5CCN(C)CC5)c(O)c4c3C2=O)NC(=O)/C(C)=C\C=C\[C@H](C)[C@H](O)[C@@H](C)[C@@H](O)[C@@H](C)[C@H](OC(C)=O)[C@@H]1C` [RIFAMPIN], the Cmax turned out to be 10500 ng/mL.

Source of the values: ChEMBL document CHEMBL1150797 (Antimicrob Agents Chemother, 2007).
